Assay results as given in PubChem BioAssay AID1021 (Emory University Molecular Libraries Screening Center, 2008).
Where “and” joins values, the source holds several entries; their conditions need not be identical. Equal entries are not always repeated. The entries are a selection whose mix differs from that of the whole data set. Calls of active or inactive are those of the source.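 How the source made its calls: active means compounds that cut the binding signal by more than half at the single screening dose; inactive means the rest.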

Protein sequences, listed by entry. Tags and fused reporters are not part of them.
UniProt Q07820, whole entry, looked up: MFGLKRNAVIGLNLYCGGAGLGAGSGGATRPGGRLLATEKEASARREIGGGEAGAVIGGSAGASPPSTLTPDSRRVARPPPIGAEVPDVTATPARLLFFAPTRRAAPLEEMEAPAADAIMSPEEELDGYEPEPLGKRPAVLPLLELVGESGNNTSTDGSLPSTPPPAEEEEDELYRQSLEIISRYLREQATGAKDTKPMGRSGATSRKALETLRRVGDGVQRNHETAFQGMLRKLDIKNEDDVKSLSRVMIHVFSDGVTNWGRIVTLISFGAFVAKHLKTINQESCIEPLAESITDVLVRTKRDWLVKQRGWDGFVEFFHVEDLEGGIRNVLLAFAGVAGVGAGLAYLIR

What follows are compounds tested against Induced myeloid leukemia cell differentiation protein Mcl-1 (Homo sapiens) (UniProt Q07820) (assay: disruptors of Mcl-1 and Bid BH3 peptide – biochemical, TR-FRET, 1536-well, primary screen (AID 1021;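 further: His-tagged Mcl-1 with europium anti-His antibody binding Bid BH3 peptide; 0% = Mcl-1 plus peptide wells and 100% = peptide-only wells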)). Conditions: TR-FRET Mcl-1/Bid-Dy647 peptide binding, at 21.7 µM, stronger effect = higher value.
`CC(=O)Nc1ccc(Oc2c([N+](=O)[O-])cc([N+](=O)[O-])cc2[N+](=O)[O-])cc1` was tested, and the inhibition was inactive: -0.69%. In the case of `CC(=O)Nc1ccc([As](=O)(O)O)c(O)c1`, the inhibition is reported as inactive: -16.4%. For `C[C@H]1OP(=O)(Oc2ccccc2)C[C@@H]2O[C@@H]21` (some centres not stated), the inhibition was inactive: -51.9%. For `C[C@@H]1C=CCP(=O)(Oc2ccccc2)O1` (some centres not stated), the inhibition was inactive: -42.4%. With `CC(C)(C)C(=O)NC(Sc1ccccc1)C(Cl)(Cl)Cl` (configuration not stated) the inhibition was inactive: -13.5%. In the case of `CCOc1ccc(C2=NCC(CBr)S2)cc1` (configuration not stated), the inhibition is reported as inactive: 11.4%. `O=P1(Nc2nc3ccc(Cl)cc3s2)COc2ccccc2O1` (configuration not stated) was tested, and the inhibition was inactive: -35.1%. In the case of `O=c1c2cc([N+](=O)[O-])ccc2[nH]c2c([N+](=O)[O-])cc([N+](=O)[O-])cc12`, the inhibition is reported as inactive: 4.89%. In the case of `CN(C)C(=O)Oc1noc2ccccc12`, the inhibition is reported as inactive: -9.72%. In the case of `Cc1ccccc1OP(=O)(Nc1ccccn1)Oc1ccccc1C`, the inhibition is reported as inactive: -6.37%. In the case of `CC(=O)NC(SC(=S)N(CC(C)C)CC(C)C)C(Cl)(Cl)Cl` (configuration not stated), the inhibition is reported as inactive: 36.7%. With `Cc1ccc(OP(=O)(Nc2ccccn2)Oc2ccc(C)cc2)cc1` the inhibition was inactive: -6.73%. With `COC(=O)c1cc2c(s1)N=C(c1ccccc1)N(C)P2(=O)N1CCOCC1` (configuration not stated) the inhibition was inactive: -10.8%. In the case of `CCC(=O)N1C2C3N(C(=O)CC)C1C1N(C(=O)CC)C(C(N1C(=O)CC)N3C(=O)CC)N2C(=O)CC`, the inhibition is reported as inactive: -21.3%. In the case of `CCNC(=S)/N=C(\N)N[N+](=O)[O-]`, the inhibition is reported as inactive: -38.5%. For `O=C(NC1CCS(=O)(=O)C1)NP(=S)(Oc1ccccc1)Oc1ccccc1` (configuration not stated), the inhibition was inactive: -6.38%. With `Cc1ccc(NP(=O)(Oc2cccc(C)c2)Oc2cccc(C)c2)nc1` the inhibition was inactive: -20.1%. In the case of `CCOC(=O)NC(Sc1ccccc1)C(Cl)(Cl)Cl` (configuration not stated), the inhibition is reported as inactive: -21.4%. With `c1ccc(-c2nn[nH]n2)c(-c2nn[nH]n2)c1` the inhibition was inactive: 18.5%. In the case of `C(Cc1nn[nH]n1)Cc1nn[nH]n1`, the inhibition is reported as inactive: 43.8%. For `Nc1ccc([As](=O)(O)c2ccc([N+](=O)[O-])cc2)cc1`, the inhibition was inactive: -21.5%. With `O=C(OC1CN2CCC1CC2)c1cccc(Cl)c1` (configuration not stated) the inhibition was inactive: -10.5%. In the case of `CC(=O)NC(SC(=S)N(C)C)C(Cl)(Cl)Cl` (configuration not stated), the inhibition is reported as inactive: -18.8%. In the case of `O=[N+]([O-])c1ncn(CCn2cnc([N+](=O)[O-])n2)n1`, the inhibition is reported as inactive: -10.3%. `O=[As](O)(c1ccccc1)c1ccc(O)cc1` was tested, and the inhibition was inactive: -0.73%. For `C[C@H]1OP(=O)(Oc2ccccc2)[C@H](O)[C@H](O)[C@H]1N=[N+]=[N-]` (some centres not stated), the inhibition was inactive: -40.2%. With `O=P(Nc1nc2ccccc2s1)(c1ccccc1)c1ccccc1` the inhibition was inactive: -15.9%. `O=P(Nc1ccccn1)(c1ccc(Br)cc1)c1ccc(Br)cc1` was tested, and the inhibition was inactive: -15.2%. With `c1nnnn1CCn1cnnn1` the inhibition was inactive: -25.1%. For `CC(C)C(=O)NC(Sc1ccccc1)C(Cl)(Cl)Cl` (configuration not stated), the inhibition was inactive: -25.4%. `O=P(Nc1nccs1)(c1ccccc1)c1ccccc1` was tested, and the inhibition was inactive: -20.5%. In the case of `CN(C)C(=O)OCCc1n(C)cc[n+]1C`, the inhibition is reported as inactive: -31.8%. `CC(C)=N/N=C(\N)N[N+](=O)[O-]` was tested, and the inhibition was inactive: -13.3%. For `CC1CCN(C(=O)Oc2c(Cl)cc(Cl)c3cccnc23)CC1`, the inhibition was inactive: -10.9%. `C[N+]1=C2C=CC=CC=C2SC12C([N+](=O)[O-])=CC([N+](=O)[O-])=C[C-]2[N+](=O)[O-]` (configuration not stated) was tested, and the inhibition was inactive: -58.4%. For `Nc1ccc([As](=O)(O)c2ccc(N)cc2)cc1`, the inhibition was inactive: -13.8%. In the case of `CCN(/C(=N/P(=O)(N1CCOCC1)N1CCOCC1)N1CCOCC1)c1ccc(OC)cc1`, the inhibition is reported as inactive: -16.3%. In the case of `O=[N+]([O-])c1cccc2n[nH]nc12`, the inhibition is reported as inactive: 36.5%. In the case of `CC(=O)N1C2C3N(C(C)=O)C1C1N(C(C)=O)C(C(N1C(C)=O)N3C(C)=O)N2C(C)=O`, the inhibition is reported as inactive: -7.77%. In the case of `CCc1nc2c(n1)c1c(non1O)c1c2no[n+]1[O-]`, the inhibition is reported as inactive: -7.31%. For `O=[N+]([O-])c1cc([N+](=O)[O-])c(CCNc2ccccc2)c([N+](=O)[O-])c1`, the inhibition was inactive: -32.1%. In the case of `Cc1ccc(NP(=O)(Oc2ccccc2)Oc2ccccc2)nc1`, the inhibition is reported as inactive: -4.93%. In the case of `COc1ccc(C2=NCC(CBr)S2)cc1` (configuration not stated), the inhibition is reported as inactive: -8.31%. With `O=[N+]([O-])c1cccc(NC2=NCC(CBr)S2)c1` (configuration not stated) the inhibition was inactive: 4.31%. In the case of `O=C(O)CNc1ccc([As](=O)(O)O)cc1`, the inhibition is reported as inactive: 3.14%. For `CC(C)(C)C(=O)NC(Sc1ccncn1)C(Cl)(Cl)Cl` (configuration not stated), the inhibition was inactive: -58.5%. `O=[N+]([O-])c1ncn(CCn2ncnc2[N+](=O)[O-])n1` was tested, and the inhibition was inactive: -2.7%. With `O=C(Nc1cc([As](=O)(O)O)ccc1O)c1ccccc1` the inhibition was inactive: -40.4%. `CCN(N=Nc1nonc1N)c1nonc1N` was tested, and the inhibition was inactive: -14.7%. For `Nc1cccc2ccc([As](=O)(O)O)cc12`, the inhibition was inactive: -26.3%. `Cc1ccc(NP(=O)(Oc2ccccc2F)Oc2ccccc2F)nc1` was tested, and the inhibition was inactive: -13.8%. `Cc1cc(SC(NC(=O)c2ccc(F)cc2)C(Cl)(Cl)Cl)ncn1` (configuration not stated) was tested, and the inhibition was inactive: -23.8%. In the case of `CCOP(=O)(Nc1ccccc1)OCC`, the inhibition is reported as inactive: -3.53% and inactive: 2.55%. For `CC(=O)Nc1ccc([As](=O)(O)O)cc1`, the inhibition was inactive: -3.74%. `O=C(O)c1ccccc1[As](=O)(O)O` was tested, and the inhibition was inactive: -14.2%. With `O=P(Nc1nc2ccc(Cl)cc2s1)(c1ccccc1)c1ccccc1` the inhibition was inactive: -80.7%. In the case of `Nc1cc(N)c2nonc2c1[N+](=O)[O-]`, the inhibition is reported as inactive: -9.44%. With `CC(C)CC(=O)NC(Sc1ccc(Cl)cc1)C(Cl)(Cl)Cl` (configuration not stated) the inhibition was inactive: -11%. `O=C(NC(Sc1ccncn1)C(Cl)(Cl)Cl)c1ccccc1` (configuration not stated) was tested, and the inhibition was inactive: -8.79%. With `Cc1c2non([O-])c-2c(C)[n+](=O)[n+]1[O-]` the inhibition was inactive: 25.7%. For `Oc1ccccc1CNc1ccccn1`, the inhibition was inactive: -17.2%. With `Cc1ccc(OP(=O)(Nc2nccs2)Oc2ccc(C)cc2)cc1` the inhibition was inactive: -17.1%. In the case of `COc1ccccc1OP(=O)(Nc1ccc(C)cn1)Oc1ccccc1OC`, the inhibition is reported as inactive: -26.3%. In the case of `CN1CCCC(OC(=O)C(c2ccccc2)c2ccccc2)C1` (configuration not stated), the inhibition is reported as inactive: 5.71%. In the case of `Clc1ccc(Cl)c(NC2=NCC(CBr)S2)c1` (configuration not stated), the inhibition is reported as inactive: 3.29%. In the case of `NC(=O)c1cc([N+](=O)[O-])cc([N+](=O)[O-])c1N`, the inhibition is reported as inactive: 7.17%. For `Cc1ccc(N/C(=N/P(=O)(N2CCOCC2)N2CCOCC2)N2CCOCC2)cc1`, the inhibition was inactive: -9.92%. `COc1ccc(N/C(=N/P(=O)(N2CCOCC2)N2CCOCC2)N2CCOCC2)cc1` was tested, and the inhibition was inactive: -8%. In the case of `COc1cc(I)ccc1[As](=O)(O)O`, the inhibition is reported as inactive: 0.15%. With `COc1ccc2nc(NP(=O)(c3ccccc3)c3ccccc3)sc2c1` the inhibition was inactive: -18.8%. `Cc1cc(=O)[nH]c(N[N+](=O)[O-])n1` was tested, and the inhibition was inactive: -15%. In the case of `O=C(OC1CN2CCC1CC2)C12CC3CC(CC(C3)C1)C2` (configuration not stated), the inhibition is reported as inactive: 3.44%. For `Cc1c2c(nc3ccccc13)SC(C(Cl)Cl)C2` (configuration not stated), the inhibition was inactive: 4.27%. For `O=[N+]([O-])c1cc([N+](=O)[O-])c(-c2ccn[nH]2)s1`, the inhibition was inactive: -41.2%. With `CC(C)NC(=O)NP(=O)(Oc1ccccc1)Oc1ccccc1` the inhibition was inactive: -28.1%. With `CCN(CC)C(=S)SC(NC=O)C(Cl)(Cl)Cl` (configuration not stated) the inhibition was inactive: -82.4%. `CC(C)c1ccc(OP(=O)(Nc2ccccn2)Oc2ccccc2F)cc1` (configuration not stated) was tested, and the inhibition was inactive: -10.4%. For `ClCCSc1nnc(-c2cccnc2)o1`, the inhibition was inactive: 0.25%. For `Cc1ccc2nc3c(c(C)c2c1)CC(C(Cl)Cl)S3` (configuration not stated), the inhibition was inactive: -1.95%. With `Cc1ccc(OP(=O)(Nc2ccc([N+](=O)[O-])cn2)Oc2ccc(C)cc2)cc1` the inhibition was inactive: -1.01%. In the case of `C[As](=O)(O)c1cccc(C(=O)O)c1`, the inhibition is reported as inactive: -13.3%. `O=[N+]([O-])c1ccc(Nc2ccc(Oc3ccc([N+](=O)[O-])cc3[N+](=O)[O-])cc2)c([N+](=O)[O-])c1` was tested, and the inhibition was inactive: -17.8%. `O=P(Nc1ccccn1)(c1cccc2ccccc12)c1cccc2ccccc12` was tested, and the inhibition was inactive: -27.2%. In the case of `Cc1cc(SC(NC=O)C(Cl)(Cl)Cl)ncn1` (configuration not stated), the inhibition is reported as inactive: -57.1%. With `CCOC(=O)Nc1cccc([As](=O)(O)O)c1` the inhibition was inactive: -1.31%. In the case of `Cc1cc(SC(NC(=O)c2ccccc2)C(Cl)(Cl)Cl)nc(C(C)C)n1` (configuration not stated), the inhibition is reported as inactive: -83.3%. For `CCOC(=O)Nc1ccc([As](=O)(O)O)c(O)c1`, the inhibition was inactive: -1.53%. In the case of `CCC(C)N(CC(C)C)C(=S)SC(NC(C)=O)C(Cl)(Cl)Cl` (configuration not stated), the inhibition is reported as inactive: -18%. `CCOC(=O)c1ccc(NC(=O)C(C)(CCl)SC)cc1` (configuration not stated) was tested, and the inhibition was inactive: -11.9%. With `O=C(COc1ccccc1)OC1CN2CCC1CC2` (configuration not stated) the inhibition was inactive: -24.5%. For `COP1(=S)c2c(C)nn(CCC#N)c2N=C(c2ccc(F)cc2)N1C` (configuration not stated), the inhibition was inactive: -17%. In the case of `O=[As](O)(c1ccccc1Br)c1ccccc1Br`, the inhibition is reported as inactive: 1.5%. With `CC(C)/C=N\N=C(\N)N[N+](=O)[O-]` the inhibition was inactive: -16.4%. `CN(C(=O)Cc1ccc(Cl)c(Cl)c1)[C@@H]1CCCC[C@H]1N1CCCC1` was tested, and the inhibition was inactive: 7.64%. `CC(C)(C)C(=O)NC(Sc1ncccn1)C(Cl)(Cl)Cl` (configuration not stated) was tested, and the inhibition was inactive: -39.7%. In the case of `Clc1n[nH]nc1-c1nn[nH][15n]1`, the inhibition is reported as inactive: 3.02%. In the case of `CCOP(=O)(Nc1ccc(C)cn1)OCC`, the inhibition is reported as inactive: -41.2%. With `O=P1(Nc2ccccn2)COc2ccccc2OC1` the inhibition was inactive: -7.2%. `Cc1ccc(OCC(=O)OC2CN3CCC2CC3)cc1` (configuration not stated) was tested, and the inhibition was inactive: 5.29%. With `O=[As](O)(c1cccs1)c1cccs1` the inhibition was inactive: -13.3%. For `O=P1(Nc2ccc(Br)cn2)COc2ccccc2OC1`, the inhibition was inactive: -22.3%. `Nc1cccc([As](=O)(O)c2ccccc2)c1` was tested, and the inhibition was inactive: -6.71%.
